{
  "sequences": {"note": "Chains of the proteins cited; added tags and fusions are not shown.", "UniProt P55072, whole entry": "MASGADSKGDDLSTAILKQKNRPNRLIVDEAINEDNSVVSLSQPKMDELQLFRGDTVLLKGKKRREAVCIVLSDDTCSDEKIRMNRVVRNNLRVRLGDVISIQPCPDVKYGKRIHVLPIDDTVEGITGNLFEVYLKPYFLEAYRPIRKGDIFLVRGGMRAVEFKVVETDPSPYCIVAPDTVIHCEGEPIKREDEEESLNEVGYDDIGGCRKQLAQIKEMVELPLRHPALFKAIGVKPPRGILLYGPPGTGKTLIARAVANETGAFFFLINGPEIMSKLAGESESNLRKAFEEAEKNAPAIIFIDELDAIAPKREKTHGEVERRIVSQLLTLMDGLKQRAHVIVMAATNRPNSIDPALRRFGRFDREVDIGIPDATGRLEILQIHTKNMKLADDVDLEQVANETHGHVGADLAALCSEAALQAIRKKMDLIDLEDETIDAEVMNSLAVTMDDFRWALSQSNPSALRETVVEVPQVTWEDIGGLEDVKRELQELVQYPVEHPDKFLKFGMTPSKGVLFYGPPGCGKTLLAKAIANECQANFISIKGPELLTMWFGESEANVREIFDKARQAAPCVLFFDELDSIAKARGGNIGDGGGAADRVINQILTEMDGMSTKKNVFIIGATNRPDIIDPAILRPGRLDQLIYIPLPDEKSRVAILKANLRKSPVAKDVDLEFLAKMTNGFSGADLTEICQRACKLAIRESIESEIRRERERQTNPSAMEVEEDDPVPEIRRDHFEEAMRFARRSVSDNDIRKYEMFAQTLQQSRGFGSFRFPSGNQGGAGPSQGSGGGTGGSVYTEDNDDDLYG"},
  "source": "PubChem BioAssay AID1481",
  "about": "(The Scripps Research Institute Molecular Screening Center, 2009)",
  "note": "The list shows a part of the results, in another mix than the full data. Some results for these compounds are left out of this collection, so the calls shown say nothing about other tests. The source made the active and inactive calls. Cut-off read from the data, not from the text of the source: active = inhibition above about 15%; inactive = the rest.",
  "data": [
    {"molecular_target": "Transitional endoplasmic reticulum ATPase (Homo sapiens) (UniProt P55072)", "experiment": "inhibitors of human p97 ATPase, primary screen, biochemical (AID 1481);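 note: 0% = DMSO vehicle and 100% = wells lacking enzyme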", "settings": "recombinant p97 ATPase, Kinase-Glo ATP luminescence, 3 h; at 8 µM; active compounds read high", "values": [
      {"smiles": "CN(C)C1CCCC1OC(=O)C(O)(c1ccccc1)c1ccccc1", "note": "(stereo unspecified)", "inhibition": "inactive: 3.82%"},
      {"smiles": "Cc1ccccc1C(=O)NCC1(N2CCCCC2)CCCCC1", "inhibition": "inactive: -5.74%"},
      {"smiles": "CCN1CCCC(OC(=O)C2(O)c3ccccc3C=Cc3ccccc32)C1", "note": "(stereo unspecified)", "inhibition": "inactive: 2.42%"},
      {"smiles": "C=CCN1CCN(CCOC(=O)C(O)(c2ccccc2)c2ccccc2)CC1", "inhibition": "inactive: -0.04%"},
      {"smiles": "O=C(NCC1(N2CCCCC2)CCCCC1)c1cc([N+](=O)[O-])ccc1Cl", "inhibition": "inactive: 1.37%"},
      {"smiles": "CCN(CC)CC(C)C(C)OC(=O)C(O)(c1ccccc1)c1ccccc1", "note": "(stereo unspecified)", "inhibition": "inactive: 5.1%"},
      {"smiles": "CC(C)N1C(=O)CC2(CCN(CCOC(=O)C(O)(c3ccccc3)c3ccccc3)CC2)C1=O", "inhibition": "inactive: 1.57%"},
      {"smiles": "O=C(OC1CN2CCC1CC2)C(CO)(c1ccccc1)c1ccccc1", "note": "(stereo unspecified)", "inhibition": "inactive: -2.57%"},
      {"smiles": "CN(C)c1cccc(C(=O)NCC2(N(C)C)CCCCC2)c1", "inhibition": "inactive: 1.26%"},
      {"smiles": "COc1ccc(Br)c(C(=O)NCC2(N3CCCCC3)CCCCC2)c1", "inhibition": "inactive: 8.33%"},
      {"smiles": "COc1cccc(C(=O)NCC2(N3CCCCC3)CCCCC2)c1", "inhibition": "inactive: 2.74%"}
    ]}
  ]
}
